Results taken from US12492380B2, “Methods for the production of hepatocytes” (FUJIFILM Cellular Dynamics, Inc., priority 2019, dated 2025).

Test system: iPSCs
Experiment: CHIR99021 preconditioning/supplementation during iPSC to hepatocyte differentiation
Assay type: cell-based, human
[1] = 3 μM during Stage 2, lines 54A, 89F, 01D1 (FIG. 11)

Compound: Cc1c[nH]c(-c2cnc(NCCNc3ccc(C#N)cn3)nc2-c2ccc(Cl)cc2Cl)n1 [CHIR99021]
- AAT purity [1]: without impacting AAT purity
- cell proliferation and AAT-positive cell yields [1]: increases cell proliferation and AAT-positive cell yields
- effect on hepatocyte proliferation and differentiation efficiency (addition prior to DE induction): promote hepatocyte proliferation and differentiation efficiency
- effect of introduction during Stage 1 (introduction during Stage 1): no positive effect
- effect on cell morphology (introduction during Stage 2): no negative impact on cell morphology
- effect on cell proliferation (introduction during Stage 2): beneficial effect on cell proliferation
- effect on pluripotency markers (TRA181, POU5F1, NANOG) (pre-conditioning, during DE induction): downregulates pluripotency markers
